# Experimental data: ChEMBL document CHEMBL1123259, “Probes for narcotic receptor mediated phenomena. 13. Potential irreversible narcotic antagonist-based ligands derived from 6,14-endo-ethenotetrahydronororipavine with 7-(methoxyfumaroyl)amino, (bromoacetyl)amino, or isothiocyanate electrophiles: chemistry, biochemistry, and pharmacology” (1986)
# Target: Opioid receptor (Rattus norvegicus, UniProt P33533+P34975+P33535)
# Experiment: Displacement of [3H]dalamid ([D-Ala2,Met5] enkephalinamide) from opioid receptors of rat brain membrane
row,SMILES,EC50
1,C=CCN1CC[C@]23c4c5ccc(O)c4O[C@H]2C2(OC)C=C[C@@]3(C[C@@H]2NC(=O)/C=C/C(=O)OC)[C@H]1C5.O=C(O)C(=O)O,90 nM
2,C=CCN1CC[C@]23c4c5ccc(O)c4O[C@H]2C2(OC)C=C[C@@]3(C[C@@H]2N=S)[C@H]1C5.O=C(O)C(=O)O,100 nM
3,C=CCN1CC[C@]23c4c5ccc(O)c4O[C@H]2C2(OC)C=C[C@@]3(C[C@@H]2NC(=O)CBr)[C@H]1C5.O=C(O)C(=O)O,90 nM
4,C=CCN1CC[C@]23c4c5ccc(O)c4O[C@H]2C2(OC)C=C[C@@]3(C[C@@H]2N)[C@H]1C5.O=C(O)C(=O)O,50 nM
